Data published in ChEMBL document CHEMBL3425418, “Design, synthesis and biological evaluation of deuterated Tivozanib for improving pharmacokinetic properties” (Bioorg Med Chem Lett, 2015).

The chains behind the UniProt entries cited, without tags or fusion partners.
UniProt P35916, whole entry: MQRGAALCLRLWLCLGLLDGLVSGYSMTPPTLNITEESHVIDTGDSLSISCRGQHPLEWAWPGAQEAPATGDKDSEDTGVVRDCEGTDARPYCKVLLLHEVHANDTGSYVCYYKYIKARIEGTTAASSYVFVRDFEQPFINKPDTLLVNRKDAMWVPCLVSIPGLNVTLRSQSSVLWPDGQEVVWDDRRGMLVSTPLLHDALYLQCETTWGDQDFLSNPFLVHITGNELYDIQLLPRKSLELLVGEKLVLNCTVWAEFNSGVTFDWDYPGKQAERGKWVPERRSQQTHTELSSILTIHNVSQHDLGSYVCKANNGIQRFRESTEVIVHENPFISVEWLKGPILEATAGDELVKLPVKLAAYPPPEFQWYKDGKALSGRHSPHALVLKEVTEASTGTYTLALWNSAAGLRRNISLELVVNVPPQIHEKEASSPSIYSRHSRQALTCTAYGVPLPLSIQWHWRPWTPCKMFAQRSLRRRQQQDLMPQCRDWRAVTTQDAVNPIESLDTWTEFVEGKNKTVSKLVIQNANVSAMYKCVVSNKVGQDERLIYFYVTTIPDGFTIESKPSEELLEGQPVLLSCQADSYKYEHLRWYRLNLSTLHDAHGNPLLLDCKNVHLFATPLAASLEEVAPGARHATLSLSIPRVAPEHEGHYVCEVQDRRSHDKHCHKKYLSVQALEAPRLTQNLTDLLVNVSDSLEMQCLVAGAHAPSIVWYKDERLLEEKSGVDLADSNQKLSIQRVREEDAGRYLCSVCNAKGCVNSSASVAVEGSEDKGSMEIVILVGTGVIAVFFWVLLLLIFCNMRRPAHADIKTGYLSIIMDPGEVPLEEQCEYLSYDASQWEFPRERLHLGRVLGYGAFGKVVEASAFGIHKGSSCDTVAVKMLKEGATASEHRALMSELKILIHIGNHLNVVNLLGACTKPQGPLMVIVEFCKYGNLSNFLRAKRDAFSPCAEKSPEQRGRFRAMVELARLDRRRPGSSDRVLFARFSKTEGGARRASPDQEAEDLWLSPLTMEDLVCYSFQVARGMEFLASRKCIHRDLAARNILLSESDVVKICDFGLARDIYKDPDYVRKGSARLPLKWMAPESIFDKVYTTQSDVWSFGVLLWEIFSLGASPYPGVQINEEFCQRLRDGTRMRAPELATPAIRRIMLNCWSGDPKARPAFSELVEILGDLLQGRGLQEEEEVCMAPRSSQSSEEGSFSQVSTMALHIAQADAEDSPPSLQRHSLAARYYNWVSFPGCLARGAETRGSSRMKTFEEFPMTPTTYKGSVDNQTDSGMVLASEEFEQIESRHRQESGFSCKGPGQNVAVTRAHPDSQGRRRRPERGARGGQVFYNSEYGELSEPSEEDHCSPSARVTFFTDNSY

Target: Vascular endothelial growth factor receptor 3 (Homo sapiens, UniProt P35916)

SMILES: [2H]C([2H])([2H])Oc1cc2nccc(Oc3ccc(NC(=O)Nc4cc(C)on4)c(Cl)c3)c2cc1OC([2H])([2H])[2H]
- IC50: 4.55 nM
